Measurements from patent EP0863915B1.

Protein sequences, listed by entry. Tags and fused reporters are not part of them. Residues count along the entry.
UniProt P08246, 30-267 limits assumed: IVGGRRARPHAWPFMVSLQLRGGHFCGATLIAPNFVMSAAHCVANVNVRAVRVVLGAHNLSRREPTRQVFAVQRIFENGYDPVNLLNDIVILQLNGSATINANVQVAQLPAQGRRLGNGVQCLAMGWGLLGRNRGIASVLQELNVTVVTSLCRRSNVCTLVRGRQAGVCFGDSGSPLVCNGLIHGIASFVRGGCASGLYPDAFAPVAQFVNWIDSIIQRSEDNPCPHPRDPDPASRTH

Molecular target: Elastase (Homo sapiens, UniProt P08246)
Test: In vitro assay of elastase with chromogenic substrate N-MeOSuc-Ala-Ala-Pro-Val-p-nitroanilide, in the presence of prodrug with or without porcine liver esterase
Experimental: Elastase was assayed in vitro using the chromogenic substrate N-MeOSuc-Ala-Ala-Pro-Val-p-nitroanilide ([S] = 0.20 mM; Km = 0.16 mM), available commercially. The assay techniques are similar to those described by Mehdi, et al., Biochemical and Biophysical Research Communications, 166, 595 (1990). The assay mixture consists of partially purified elastase and substrate (0.2 mM) in 0.1 M HEPES (pH 7.5), 0.5 M NaCl, 10% DMSO and 0.1% Brij 35. The reaction (1 or 2 mL, in a plastic cuvette) is maintained at 37°C and the hydrolysis of the substrate is followed in the presence of MDL 104,569 and 5 units/mL of porcine liver esterase (Sigma Chemical Co., cat. no. E-3128). Elastase is isolated from human sputum, although recently it has become commercially available. The rate of hydrolysis of the substrate with no inhibitor or prodrug added is assigned 100%. In the presence of 1 µM MDL 104,569, a rate of 81% was obtained; when esterase (porcine liver, Sigma Chemical Co.) was also present, the rate decreased to 24%. At a concentration of 10 µM, the rate observed from the final extent of inhibition in the assay in the presence of esterase was 130 nM, compared to a Ki of 200 nM for the parent drug measured independently.
Elastase was assayed in vitro in the presence of MDL 105,565 using the techniques and procedures described in Example 18. With MDL 105,565, at a concentration of 10 nM, a rate of 99% was obtained; when esterase was added, this rate was 76%. At a concentration of 45 nM, the rates were 94% (without esterase) and 37% (with esterase). In this case, the Ki of the liberated drug was calculated to be 13 nM, compared with a Ki of 2 nM determined independently.

rate of hydrolysis of the substrate (1 µM compound, esterase (porcine liver) also present, rate with no inhibitor or prodrug = 100%) [%]	rate of hydrolysis of the substrate (1 µM compound, without esterase, rate with no inhibitor or prodrug = 100%) [%]	Ki (read-out: rate observed from the final extent of inhibition in the assay in the presence of esterase, 10 µM compound, in the presence of esterase) [nM]	rate of hydrolysis of the substrate (10 nM compound, esterase added) [%]	rate of hydrolysis of the substrate (10 nM compound, without esterase) [%]	rate of hydrolysis of the substrate (45 nM compound, with esterase) [%]	rate of hydrolysis of the substrate (45 nM compound, without esterase) [%]	Ki (read-out: Ki of the liberated drug, calculated from the assay of the prodrug with esterase) [nM]	SMILES
24	81	130						COC(=O)CCC(=O)N[C@@H](C)C(=O)N[C@@H](C)C(=O)N1CCC[C@H]1C(=O)NC(=C(OC(C)=O)C(=O)OC)C(C)C
			76	99	37	94	13	COC(=O)/C(OC(C)=O)=C(\NC(=O)[C@@H]1CCCN1C(=O)[C@@H](NC(=O)c1ccc(C(=O)NS(=O)(=O)c2ccc(Cl)cc2)cc1)C(C)C)C(C)C

Read-outs that look alike come from different tables or passages of the source.
